Values quoted from earlier work in US20100012892A1, “Tooth Whitening Compositions and Methods” (priority 2008, published 2010).

Settings: chlorite ion/chlorous acid equilibrium

## chlorous acid [chlorite ion/chlorous acid]
  pKa: 1.8
